{
  "source": "patent US9248145B2",
  "about": "“Two alkylresorcinol synthase genes from sorghum; cloning, expression, transformation and characterization” (The United States of America, as represented by The …, priority 2010, dated 2016)",
  "assay_in_all_cases": "Polyketide synthase enzyme assay, alkylresorcinol synthase activity",
  "format_in_all_cases": "biochemical, Oryza sativa",
  "key": {"recombinant Os05g12180": {"tested_on": "recombinant Os05g12180", "settings": "preferred substrate", "description": "(§1) Polyketide synthase enzyme assays, performed in triplicate, contained 100 mM potassium phosphate buffer (pH 7.0), 40 μM malonyl-CoA, 25 μM starter unit (e.g., palmitoyl-CoA), and 2 μg protein in a 200 μL volume at 30° C. for 15 min. […] Reactions were quenched by addition of 10 μL of 20% HCl, and products were extracted by phase partitioning with 1 ml of ethyl acetate. The organic phase (upper layer) obtained by centrifugation at ˜14,000×g for 1 min was transferred to a fresh tube, dried under vacuum, and subsequently analyzed by GC-EI-MS as a trimethysilyl (TMS) derivative. Product formation was quantified using selective ion monitoring at m/z 268, a fragment ion common to all alkylresorcinols, generated by benzylic cleavage of the alkyl side chain. The identification of the m/z 268 [(5-methyl-1,3 phenylene)bis(oxy)bis(TMS)]^+ base ion and the parent [M]^+ provide confirmation of the 5-alkylresorcinolic structure as well as the length and degree of saturation of the associated side chain (Occolowitz, 1964. Anal. Chem. 36:2177-2181; Suzuki et al. 1996, supra; Suzuki at al. 2003, supra).\n(§2) Enzyme assays, performed in triplicate, for starter unit CoA kinetics contained 100 mM potassium phosphate buffer (pH 7.0), 40 μM [2-^14C]-malonyl-CoA (50-60 mCi/mmol, 1.85-2.22 GBq/mmol; American Radiolabeled Chemicals, Inc., St. Louis, Mo.), 1.43-10 μM starter unit (e.g., palmitoyl-CoA), and 0.75 μg protein in a 200 μL volume at 30° C. for 5 min. Enzyme assays for malonyl-CoA kinetics contained 100 mM potassium phosphate buffer (pH 7.0), 1.66-25 μM [2-^14C]-malonyl-CoA, 25 μM starter unit (palmitoleoyl-CoA), and 0.75 μg protein in a 200 μL volume at 30° C. for 5 min. Reactions were quenched by addition of 10 μL of 20% HCl. The products were extracted as described above, and were separated by thin layer chromatography (silica gel 60 F254; chloroform:ethyl acetate=70:30; 15 min). Product detection and formation was quantified through the use of the Cyclone storage phosphor system and OptiQuant 3.0 image analysis software (PerkinElmer, Wellesley, Mass.). […]"}, "recombinant Os10g07040": {"tested_on": "recombinant Os10g07040", "description": "as §1, §2"}, "recombinant Os10g08620": {"tested_on": "recombinant Os10g08620", "settings": "preferred substrate", "description": "as §1, §2"}},
  "data": [
    {"compound": "CCCCCCCCCCCCCC(=O)SCCNC(=O)CCNC(=O)[C@H](O)C(C)(C)COP(=O)(O)OP(=O)(O)OC[C@H]1O[C@@H](n2cnc3c(N)ncnc32)[C@H](O)[C@@H]1OP(=O)(O)O", "note": "[myristoyl-CoA]", "values": [
      {"measurement": "maximal 5-alkylresorcinol-forming activity", "setting": "recombinant Os05g12180", "result": 66.6, "unit": "pkat mg^−1"},
      {"measurement": "maximal 5-alkylresorcinol-forming activity", "setting": "recombinant Os10g07040", "result": 13.2, "unit": "pkat mg^−1"},
      {"measurement": "maximal 5-alkylresorcinol-forming activity", "setting": "recombinant Os10g08620", "result": 48.6, "unit": "pkat mg^−1"}
    ]}
  ]
}
